In US20240225981A1, “Synthesized Molecule of Solketal Esters from Palm Kit Oil and Glycerin for Cosmetic and Agricultural Formulations” (BRASIL BIO FUELS S.A, priority 2023, published 2024) one finds GHS toxicity classification data, which are given here for one substance.

For the data set the following is noted: oral and acute toxicity tests; GHS standards.

On to Cocoyl glyceryl solketal, for which the GHS toxicity classification result is “class 5 (non-toxic)”.
